# Earlier results as cited in patent US20170007620A1, “Method of replenishing steroid hormones in neutered mammals comprising administration of dehydroepiandrosterone (DHEA) and specific metabolites in order to increase steroid hormone levels from those of neutered mammals associated with high cancer risk, to steroid hormone levels of gonadally-intact …” (priority 2015, published 2017).
# Tested on: NK cells
# Settings: cited from earlier work
structure (smiles),measurement,value
"C[C@]12CC[C@H](O)CC1=CC[C@@H]1[C@@H]2CC[C@]2(C)C(=O)CC[C@@H]12 [DHEA, Dehydroepiandrosterone]",NK cell number and cytotoxicity,increase
